{"source": "paper PMC11532403", "about": "“First-in-human, phase 1 dose-escalation and dose-expansion study of a RET inhibitor SY-5007 in patients with advanced RET-altered solid tumors” (Signal Transduction and Targeted Therapy, 2024)", "key": {"VEGFR2": {"system": "VEGFR2", "test": "Enzymatic selectivity against VEGFR2", "format": "biochemical"}, "Caco-2 permeability": {"test": "Caco-2 permeability", "format": "in vitro ADME", "details": "human, read-out: Papp ratio (BL/AP)", "excerpt": "To explore the potential drug-drug interactions (DDIs) induced by SY-5007, we performed a series of in vitro studies."}}, "data": [{"smiles": "COc1ccc(CN2C3CC2CN(c2ccc(-c4cc(N5CC(C)(O)C5)cn5ncc(C#N)c45)cn2)C3)cn1", "note": "[SY-5007, 6-(3-hydroxy-3-methylazetidin-1-yl)-4-(6-(6-((6-methoxypyridin-3-yl)methyl)-3,6-diazabicyclo[3.1.1]heptan-3-yl)pyridin-3-yl)pyrazolo[1,5-a]pyridine-3-carbonitrile]", "values": [{"measurement": "Selectivity for VEGFR2", "setting": "VEGFR2", "result": "more than 10 fold"}, {"measurement": "efflux ratio", "setting": "Caco-2 permeability", "result": "> 2"}]}]}
